Measurements published in ChEMBL document CHEMBL4311942, “Design of Trp-Rich Dodecapeptides with Broad-Spectrum Antimicrobial Potency and Membrane-Disruptive Mechanism” (J Med Chem, 2019).
Converted amounts (≈) assume the structure as drawn.

Tests used:
Escherichia coli [1] = assay: Antibacterial activity against Escherichia coli UB1005 incubated for 18 to 24 hrs by broth microdilution method; format: functional
Escherichia coli [2] = assay: Antibacterial activity against Escherichia coli ATCC 25922 incubated for 2 hrs in presence of sodium phosphate buffer at pH 10 by broth microdilution method; format: functional; conditions: ATCC 25922, 2 h
Salmonella typhimurium = assay: Antibacterial activity against Salmonella enterica serovar typhimurium C77-31 incubated for 18 to 24 hrs by broth microdilution method; format: functional, Salmonella enterica subsp. enterica serovar Typhimurium
Escherichia coli [3] = assay: Antibacterial activity against Escherichia coli ATCC 25922 in presence of MgCl2 by broth microdilution method; format: functional
Escherichia coli [4] = assay: Antibacterial activity against Escherichia coli ATCC 25922 incubated for 2 hrs in presence of sodium phosphate buffer at pH 12 by broth microdilution method; format: functional; conditions: ATCC 25922, 2 h
Escherichia coli [5] = assay: Antibacterial activity against Escherichia coli ATCC 25922 in presence of KCl by broth microdilution method; format: functional
Staphylococcus aureus [6] = assay: Antibacterial activity against Staphylococcus aureus ATCC 29213 incubated for 2 hrs in presence of sodium phosphate buffer at pH 10 by broth microdilution method; format: functional; conditions: ATCC 29213, 2 h
Escherichia coli [7] = assay: Antibacterial activity against Escherichia coli ATCC 25922 using preheated compound at 100 degreeC for 1 hr by broth microdilution method; format: functional; conditions: ATCC 25922, 1 h
Escherichia coli [8] = assay: Antibacterial activity against ciprofloxacin-resistant Escherichia coli ATCC 25922 incubated for 18 to 24 hrs; format: functional
Escherichia coli [9] = assay: Antibacterial activity against Escherichia coli ATCC 25922 incubated for 18 to 24 hrs by broth microdilution method; format: functional
Staphylococcus aureus [10] = assay: Antibacterial activity against Staphylococcus aureus ATCC 29213 in presence of NaBH4 by broth microdilution method; format: functional
Staphylococcus aureus [11] = assay: Antibacterial activity against Staphylococcus aureus ATCC 29213 in presence of 25% serum by broth microdilution method; format: functional
Staphylococcus aureus [12] = assay: Antibacterial activity against Staphylococcus aureus ATCC 29213 in presence of MgCl2 by broth microdilution method; format: functional
Escherichia coli [13] = assay: Antibacterial activity against Escherichia coli ATCC 25922 in presence of NH4Cl by broth microdilution method; format: functional
Staphylococcus aureus [14] = assay: Antibacterial activity against Staphylococcus aureus ATCC 29213 in presence of KCl by broth microdilution method; format: functional
Staphylococcus aureus [15] = assay: Antibacterial activity against Staphylococcus aureus ATCC 29213 incubated for 2 hrs in presence of sodium phosphate buffer at pH 2 by broth microdilution method; format: functional; conditions: ATCC 29213, 2 h
Escherichia coli [16] = assay: Antibacterial activity against Escherichia coli ATCC 25922 incubated for 2 hrs in presence of sodium phosphate buffer at pH 2 by broth microdilution method; format: functional; conditions: ATCC 25922, 2 h
Escherichia coli [17] = assay: Antibacterial activity against Escherichia coli ATCC 25922 in presence of H202 by broth microdilution method; format: functional
Escherichia coli [18] = assay: Antibacterial activity against Escherichia coli ATCC 25922 in presence of CaCl2 by broth microdilution method; format: functional
Escherichia coli [19] = assay: Antibacterial activity against Escherichia coli ATCC 25922 incubated for 2 hrs in presence of sodium phosphate buffer at pH 4 by broth microdilution method; format: functional; conditions: ATCC 25922, 2 h
Staphylococcus aureus [20] = assay: Antibacterial activity against Staphylococcus aureus ATCC 29213 in presence of 50% serum by broth microdilution method; format: functional
Staphylococcus aureus [21] = assay: Antibacterial activity against Staphylococcus aureus ATCC 29213 in presence of NaCl by broth microdilution method; format: functional
[22] = test system: Staphylococcus epidermidis; assay: Antibacterial activity against Staphylococcus epidermidis ATCC 12228 incubated for 18 to 24 hrs by broth microdilution method; format: functional
Escherichia coli [23] = assay: Antibacterial activity against Escherichia coli ATCC 25922 in presence of 50% serum by broth microdilution method; format: functional
Staphylococcus aureus [24] = assay: Antibacterial activity against Staphylococcus aureus ATCC 29213 in presence of FeCl3 by broth microdilution method; format: functional
Staphylococcus aureus [25] = assay: Antibacterial activity against Staphylococcus aureus ATCC 25923 incubated for 18 to 24 hrs by broth microdilution method; format: functional
Staphylococcus aureus [26] = assay: Antibacterial activity against Staphylococcus aureus ATCC 29213 incubated for 18 to 24 hrs by broth microdilution method; format: functional
Escherichia coli [27] = assay: Antibacterial activity against Escherichia coli ATCC 25922 in presence of FeCl3 by broth microdilution method; format: functional
Staphylococcus aureus [28] = assay: Antibacterial activity against Staphylococcus aureus ATCC 29213 using preheated compound at 100 degreeC for 1 hr by broth microdilution method; format: functional; conditions: ATCC 29213, 1 h
Staphylococcus aureus [29] = assay: Antibacterial activity against Staphylococcus aureus ATCC 29213 in presence of NH4Cl by broth microdilution method; format: functional
Escherichia coli [30] = assay: Antibacterial activity against Escherichia coli ATCC 25922 in presence of ZnCl2 by broth microdilution method; format: functional
Staphylococcus aureus [31] = assay: Antibacterial activity against Staphylococcus aureus ATCC 29213 in presence of H202 by broth microdilution method; format: functional
Escherichia coli [32] = assay: Antibacterial activity against Escherichia coli ATCC 25922 in presence of 12.5% serum by broth microdilution method; format: functional
Escherichia coli [33] = assay: Antibacterial activity against Escherichia coli ATCC 25922 in presence of NaBH4 by broth microdilution method; format: functional
Pseudomonas aeruginosa = assay: Antibacterial activity against Pseudomonas aeruginosa 25349 clinical isolate incubated for 18 to 24 hrs by broth microdilution method; format: functional
Escherichia coli [34] = assay: Antibacterial activity against Escherichia coli ATCC 25922 in presence of NaCl by broth microdilution method; format: functional
Escherichia coli [35] = assay: Antibacterial activity against Escherichia coli 20411 clinical isolate incubated for 18 to 24 hrs by broth microdilution method; format: functional
Staphylococcus aureus [36] = assay: Antibacterial activity against Staphylococcus aureus ATCC 29213 in presence of 12.5% serum by broth microdilution method; format: functional
Staphylococcus aureus [37] = assay: Antibacterial activity against Staphylococcus aureus ATCC 29213 incubated for 2 hrs in presence of sodium phosphate buffer at pH 12 by broth microdilution method; format: functional; conditions: ATCC 29213, 2 h
Staphylococcus aureus [38] = assay: Antibacterial activity against Staphylococcus aureus 11011 incubated for 18 to 24 hrs by broth microdilution method; format: functional
Staphylococcus aureus [39] = assay: Antibacterial activity against Staphylococcus aureus ATCC 29213 in presence of ZnCl2 by broth microdilution method; format: functional
Staphylococcus aureus [40] = assay: Antibacterial activity against Staphylococcus aureus ATCC 29213 incubated for 2 hrs in presence of sodium phosphate buffer at pH 4 by broth microdilution method; format: functional; conditions: ATCC 29213, 2 h
Escherichia coli [41] = assay: Antibacterial activity against Escherichia coli ATCC 25922 in presence of 25% serum by broth microdilution method; format: functional
Staphylococcus aureus [42] = assay: Antibacterial activity against Staphylococcus aureus ATCC 29213 in presence of CaCl2 by broth microdilution method; format: functional

CC[C@H](C)[C@H](NC(=O)CN)C(=O)NCC(=O)N[C@@H](C)C(=O)N[C@H](C(=O)N[C@@H](CC(C)C)C(=O)N[C@@H](CCCCN)C(=O)N[C@H](C(=O)N[C@@H](CC(C)C)C(=O)N[C@H](C(=O)N[C@H](C(=O)NCC(=O)N[C@@H](CC(C)C)C(=O)N1CCC[C@H]1C(=O)N[C@@H](C)C(=O)N[C@@H](CC(C)C)C(=O)N[C@H](C(=O)N[C@@H](CO)C(=O)N[C@@H](Cc1c[nH]c2ccccc12)C(=O)N[C@H](C(=O)N[C@@H](CCCCN)C(=O)N[C@@H](CCCNC(=N)N)C(=O)N[C@@H](CCCCN)C(=O)N[C@@H](CCCNC(=N)N)C(=O)N[C@@H](CCC(N)=O)C(=O)N[C@@H](CCC(N)=O)C(N)=O)[C@@H](C)CC)[C@@H](C)CC)[C@@H](C)O)[C@@H](C)O)C(C)C)C(C)C [MELITTIN]
MIC (Escherichia coli [1]): 2 µM (≈ 5.69 µg/mL)
MIC (Escherichia coli [2]): 4 µM
MIC (Salmonella typhimurium): 2 µM (≈ 5.69 µg/mL)
MIC (Escherichia coli [3]): 4 µM
MIC (Escherichia coli [4]): 4 µM
MIC (Escherichia coli [5]): 2 µM
MIC (Staphylococcus aureus [6]): 8 µM
MIC (Escherichia coli [7]): 2 µM (≈ 5.69 µg/mL)
MIC (Escherichia coli [8]): 2 µM (≈ 5.69 µg/mL)
MIC (Escherichia coli [9]): 2 µM (≈ 5.69 µg/mL)
MIC (Staphylococcus aureus [10]): 8 µM
MIC (Staphylococcus aureus [11]): 8 µM
MIC (Staphylococcus aureus [12]): 8 µM
MIC (Escherichia coli [13]): 2 µM
MIC (Staphylococcus aureus [14]): 8 µM
MIC (Staphylococcus aureus [15]): 8 µM
MIC (Escherichia coli [16]): 2 µM
MIC (Escherichia coli [17]): 4 µM
MIC (Escherichia coli [18]): 4 µM
MIC (Escherichia coli [19]): 4 µM
MIC (Staphylococcus aureus [20]): 16 µM
MIC (Staphylococcus aureus [21]): 8 µM
MIC [22]: 0.5 µM (≈ 1.42 µg/mL)
MIC (Escherichia coli [23]): 64 µM
MIC (Staphylococcus aureus [24]): 8 µM
MIC (Staphylococcus aureus [25]): 8 µM (≈ 22.8 µg/mL)
MIC (Staphylococcus aureus [26]): 8 µM (≈ 22.8 µg/mL)
MIC (Escherichia coli [27]): 2 µM
MIC (Staphylococcus aureus [28]): 8 µM (≈ 22.8 µg/mL)
MIC (Staphylococcus aureus [29]): 8 µM
MIC (Escherichia coli [30]): 4 µM
MIC (Staphylococcus aureus [31]): 8 µM
MIC (Escherichia coli [32]): 32 µM
MIC (Escherichia coli [33]): 2 µM
MIC (Pseudomonas aeruginosa): 4 µM (≈ 11.4 µg/mL)
MIC (Escherichia coli [34]): 4 µM
MIC (Escherichia coli [35]): 8 µM (≈ 22.8 µg/mL)
MIC (Staphylococcus aureus [36]): 8 µM
MIC (Staphylococcus aureus [37]): 8 µM
MIC (Staphylococcus aureus [38]): 2 µM (≈ 5.69 µg/mL)
MIC (Staphylococcus aureus [39]): 8 µM
MIC (Staphylococcus aureus [40]): 8 µM
MIC (Escherichia coli [41]): 32 µM
MIC (Staphylococcus aureus [42]): 16 µM
